Legend:
[1] = molecular target: Tyrosine-protein kinase JAK2 (Homo sapiens, UniProt O60674); assay: (§1) JAK Enzyme Assay: The activity of the isolated recombinant JAK1 and JAK2 kinase domain was measured by monitoring phosphorylation of a peptide derived from JAK3 ([…] fluorescently labeled on the N-terminus with 5-carboxyfluorescein) using the Caliper LabChip® technology (Caliper Life Sciences, Hopkinton, Mass.). […] Reactions were incubated at 22° C. in 384-well polypropylene microtiter plates for 30 minutes and then stopped by addition of 25 μL of an EDTA containing solution (100 mM HEPES buffer (pH 7.2), 0.015% Brij-35, 150 mM EDTA), resulting in a final EDTA concentration of 50 mM. After termination of the kinase reaction, the proportion of phosphorylated product was determined as a fraction of total peptide substrate using the Caliper LabChip® 3000 according to the manufacturer's specifications.
[2] = molecular target: Tyrosine-protein kinase JAK1 (Homo sapiens, UniProt P23458); assay: as §1

Amino acid sequences for entries named in this document (tags omitted). A change or cut given only in a name is not applied to a line headed by its entry.
UniProt O60674: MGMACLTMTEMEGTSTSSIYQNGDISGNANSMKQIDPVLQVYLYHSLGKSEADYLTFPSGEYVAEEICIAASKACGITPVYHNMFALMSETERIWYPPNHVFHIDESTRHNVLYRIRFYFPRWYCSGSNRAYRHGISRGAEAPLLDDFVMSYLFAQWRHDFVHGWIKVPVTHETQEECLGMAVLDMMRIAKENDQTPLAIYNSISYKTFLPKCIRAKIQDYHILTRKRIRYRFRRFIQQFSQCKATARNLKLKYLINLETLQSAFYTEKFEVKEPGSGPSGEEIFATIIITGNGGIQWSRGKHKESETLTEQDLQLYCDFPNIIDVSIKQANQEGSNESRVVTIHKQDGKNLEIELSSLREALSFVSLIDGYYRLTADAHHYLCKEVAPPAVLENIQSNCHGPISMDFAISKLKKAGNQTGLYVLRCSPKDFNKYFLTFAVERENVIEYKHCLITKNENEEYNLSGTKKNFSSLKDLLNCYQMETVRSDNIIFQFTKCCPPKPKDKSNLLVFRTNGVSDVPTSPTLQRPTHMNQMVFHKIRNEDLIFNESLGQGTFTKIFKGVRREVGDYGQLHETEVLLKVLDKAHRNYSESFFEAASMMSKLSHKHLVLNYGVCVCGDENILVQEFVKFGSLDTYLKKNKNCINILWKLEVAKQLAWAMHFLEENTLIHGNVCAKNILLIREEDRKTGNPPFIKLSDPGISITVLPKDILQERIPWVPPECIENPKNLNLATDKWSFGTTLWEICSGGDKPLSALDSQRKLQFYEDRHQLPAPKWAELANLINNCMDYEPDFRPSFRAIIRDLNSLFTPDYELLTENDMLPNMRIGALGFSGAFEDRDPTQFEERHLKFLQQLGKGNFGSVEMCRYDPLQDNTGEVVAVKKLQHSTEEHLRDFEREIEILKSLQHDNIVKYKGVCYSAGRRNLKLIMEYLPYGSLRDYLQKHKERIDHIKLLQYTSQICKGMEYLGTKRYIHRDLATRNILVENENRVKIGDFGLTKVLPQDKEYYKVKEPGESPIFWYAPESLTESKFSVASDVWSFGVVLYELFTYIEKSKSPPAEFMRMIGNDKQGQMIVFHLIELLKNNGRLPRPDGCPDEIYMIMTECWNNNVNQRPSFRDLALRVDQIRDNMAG
UniProt P23458: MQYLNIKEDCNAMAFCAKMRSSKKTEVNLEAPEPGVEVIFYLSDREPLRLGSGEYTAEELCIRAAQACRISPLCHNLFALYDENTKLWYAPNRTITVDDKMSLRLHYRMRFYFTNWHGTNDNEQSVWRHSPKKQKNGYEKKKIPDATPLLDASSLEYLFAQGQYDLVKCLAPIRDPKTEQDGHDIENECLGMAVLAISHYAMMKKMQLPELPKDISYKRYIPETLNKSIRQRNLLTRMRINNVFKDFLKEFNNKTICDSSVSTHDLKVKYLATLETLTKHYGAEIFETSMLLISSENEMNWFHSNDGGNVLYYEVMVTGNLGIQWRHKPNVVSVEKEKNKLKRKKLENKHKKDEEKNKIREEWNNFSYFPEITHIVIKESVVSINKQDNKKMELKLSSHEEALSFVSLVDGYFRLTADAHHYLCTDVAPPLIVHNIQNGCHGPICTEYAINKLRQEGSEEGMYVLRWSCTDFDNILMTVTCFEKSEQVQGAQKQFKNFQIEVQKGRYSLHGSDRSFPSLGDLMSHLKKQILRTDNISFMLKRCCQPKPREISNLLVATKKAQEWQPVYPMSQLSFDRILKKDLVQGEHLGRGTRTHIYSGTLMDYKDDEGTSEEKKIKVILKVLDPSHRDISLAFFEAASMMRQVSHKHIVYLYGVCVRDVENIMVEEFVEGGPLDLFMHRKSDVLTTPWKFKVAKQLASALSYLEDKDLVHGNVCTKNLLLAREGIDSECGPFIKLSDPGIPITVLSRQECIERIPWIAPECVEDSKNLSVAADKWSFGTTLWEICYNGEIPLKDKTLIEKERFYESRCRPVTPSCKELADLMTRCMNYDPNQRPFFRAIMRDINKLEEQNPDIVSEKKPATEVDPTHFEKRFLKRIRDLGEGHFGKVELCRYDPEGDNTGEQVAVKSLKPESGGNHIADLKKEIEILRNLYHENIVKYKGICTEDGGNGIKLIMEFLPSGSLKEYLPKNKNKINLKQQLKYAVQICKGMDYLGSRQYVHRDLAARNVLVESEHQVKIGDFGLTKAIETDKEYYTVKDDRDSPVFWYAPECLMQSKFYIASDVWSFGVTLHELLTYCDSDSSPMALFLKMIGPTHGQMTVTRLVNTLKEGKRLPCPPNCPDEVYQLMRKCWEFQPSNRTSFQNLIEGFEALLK

Row | Ki [1] | Ki [2] | Structure (SMILES)
1 | 0.91 nM |  | CCOC(=O)CCN1CCN(C(=O)Cn2cc(NC(=O)c3cnn4cccnc34)c(-c3cc(Cl)ccc3OC(F)F)n2)CC1
2 | 0.18 nM |  | CN1CCC(n2cc(NC(=O)c3c(N)nn4cccnc34)c(-c3cc(Cl)ccc3OC(F)F)n2)CC1
3 |  | 0.24 nM | CN(CC1(C#N)CC1)C1CCN(C(=O)Cn2cc(NC(=O)c3cnn4cccnc34)c(-c3cc(Cl)ccc3OC(F)F)n2)CC1
4 |  | 0.21 nM | Nc1nn2cccnc2c1C(=O)Nc1cn(CC(=O)N2CC[C@@H](O)C2)nc1-c1cc(Cl)ccc1OC(F)F

Source: ChEMBL document CHEMBL3886737, “5-chloro-2-difluoromethoxyphenyl pyrazolopyrimidine compounds, compositions and methods of use thereof” (2016)
